The IC50 is the concentration needed to halve the response being measured. Read a high IC50 as a need for much substance.

The results in this text go back to PMC7662900, “Development of a Bestatin-SAHA Hybrid with Dual Inhibitory Activity against APN and HDAC” (Molecules, 2020).

This assay concerns the target T1, HDAC8 (Homo sapiens, UniProt Q9BY41).
T1 construct: purchased BPS Bioscience
T1 sequence (Q9BY41 1-377): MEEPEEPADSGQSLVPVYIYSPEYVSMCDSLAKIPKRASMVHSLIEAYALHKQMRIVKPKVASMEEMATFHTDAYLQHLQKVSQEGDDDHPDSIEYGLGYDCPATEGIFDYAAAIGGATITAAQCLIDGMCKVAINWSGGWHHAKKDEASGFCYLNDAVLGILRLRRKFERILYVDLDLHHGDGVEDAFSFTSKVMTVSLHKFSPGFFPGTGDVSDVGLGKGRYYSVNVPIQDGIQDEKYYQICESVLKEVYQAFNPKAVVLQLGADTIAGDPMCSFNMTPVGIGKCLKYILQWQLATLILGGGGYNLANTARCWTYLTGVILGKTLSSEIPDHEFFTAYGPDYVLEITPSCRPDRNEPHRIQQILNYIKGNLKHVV
Kind of assay: In vitro HDACs inhibitory assay (fluorogenic substrate), HDAC8. It is filed as biochemical. The following applies: mean ± SD, n ≥ 3. The method, then:
All the HDAC enzymes were brought from BPS Bioscience. Ten μL of enzyme solution (HDAC1, HDAC6 or HDAC8) was mixed with different concentrations of tested compound (50 μL). The mixture was incubated at 37 °C for 5 min, followed by adding 40 μL fluorogenic substrate (Boc-Lys(acetyl)-AMC for HDAC1 and HDAC6, Boc-Lys(triflouroacetyl)-AMC for HDAC8). After incubation at 37 °C for 30 min, the mixture was quenched by addition of 100 μL of developer containing trypsin and Trichostatin A. Over another incubation at 37 °C for 20 min, fluorescence intensity was measured using a microplate reader at excitation and emission wavelengths of 390 nm and 460 nm, respectively. The inhibition rates were calculated from the fluorescence intensity readout of tested wells relative to those of control wells, and the IC50 values were calculated using Prism non-linear curve fitting method.

The molecule `O=C(CCCCCCC(=O)Nc1ccccc1)NO` [SAHA] displayed an IC50 greater than 7 µM.
